Results reported in patent US8604016B2, “Heterocyclic inhibitors of glutaminase” (Calithera Biosciences Inc., priority 2011, dated 2013).

Sequences of proteins named here, by UniProt entry; tags and fusion partners are left off. Residues count along the entry.
UniProt O94925, 55-669 limits assumed: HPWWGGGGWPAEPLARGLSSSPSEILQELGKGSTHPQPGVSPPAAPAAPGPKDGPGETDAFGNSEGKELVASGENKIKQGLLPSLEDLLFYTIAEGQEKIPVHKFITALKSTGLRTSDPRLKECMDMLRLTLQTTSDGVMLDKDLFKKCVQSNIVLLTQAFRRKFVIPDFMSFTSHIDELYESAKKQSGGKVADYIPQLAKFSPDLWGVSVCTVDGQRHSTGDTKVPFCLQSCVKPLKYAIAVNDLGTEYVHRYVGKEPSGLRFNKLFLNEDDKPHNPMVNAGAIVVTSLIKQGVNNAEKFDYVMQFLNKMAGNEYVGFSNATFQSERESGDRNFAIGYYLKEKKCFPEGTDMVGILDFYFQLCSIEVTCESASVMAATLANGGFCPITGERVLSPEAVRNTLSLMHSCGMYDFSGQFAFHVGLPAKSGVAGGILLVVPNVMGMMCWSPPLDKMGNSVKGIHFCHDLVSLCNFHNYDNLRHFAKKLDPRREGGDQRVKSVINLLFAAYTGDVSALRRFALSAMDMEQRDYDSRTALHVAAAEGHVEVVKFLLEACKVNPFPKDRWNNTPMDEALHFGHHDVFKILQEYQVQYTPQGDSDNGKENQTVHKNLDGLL

Target: recombinant form of Glutaminase 1 (GAC) (Homo sapiens, UniProt O94925)
Test: Recombinant Enzyme Assay (GAC coupled to GDH, NADH absorbance, no preincubation)
Assay type: biochemical
Conditions: read-out: GAC Delta N2 IC50 no preinc
Experimental: Enzymatic reaction was started with the addition of 50 μL of enzyme solution (50 mM Tris-HCl pH 8.0, 0.2 mM EDTA, 150 mM K2HPO4, 0.1 mg/ml BSA, 1 mM DTT, 10 ppm antifoam, 4 units/ml GDH, 4 mM adenosine diphosphate, and 4 nM GAC) and read in a Molecular Devices M5 plate reader at 20° C. The plate reader was configured to read absorbance (λ=340 nm) in kinetic mode for 15 minutes. Data was recorded as milli-absorbance units per minute and slopes were compared to a control compound and a DMSO-only control on the same plate. Compounds with slopes less than the DMSO control were considered inhibitors and plate variability was assessed using the control compound.

Molecule `N[C@@H](C(=O)Nc1nnc(CCCCc2nnc(NC(=O)[C@H](N)c3ccccc3)s2)s1)c1ccccc1` [Compound 186] has an IC50 of 3.1 µM.
